Reference: ChEMBL document CHEMBL1145958, “Furoyl and benzofuroyl pyrroloquinolones as potent and selective PDE5 inhibitors for treatment of erectile dysfunction” (J Med Chem, 2003)

Target: cGMP-specific 3',5'-cyclic phosphodiesterase (Homo sapiens, UniProt O76074)
Test: Inhibitory activity against Phosphodiesterase 5 (PDE5) was evaluated

SMILES	Ki [nM]
O=C(c1cccnc1)N1Cc2c(nc3ccccc3c2O)C1c1ccc2c(c1)OCO2 (configuration not stated)	3.32
CN1CCN(C(=O)c2ccc(-c3ccc(C(=O)N4Cc5c(nc6ccccc6c5O)C4c4ccc5c(c4)CCO5)o3)cc2)CC1 (configuration not stated)	1.78
